# Laboratory results as given in patent US20250368735A1 (AKESO BIOPHARMA, published 2025).
# B1: 8C5.1H3L3 (antibody, IgG1, V domains shown)
# VH: EVQLVESGGGLVKPGGSLRLSCAASGFTFSNSAVSWVRQAPGKGLEWVSSITSGVSYTYYADSVKGRFTISRDNAKNSLYLQMNSLRAEDTAVYYCTRQFKGNALDYWGQGTSVTVSS
# VL: DIVMTQSPSSLSVSPGERVTISCKSSQSLLNSGNQKNYLAWYQQKPGQPPKLLIYWASTRESGVPDRFSGSGSGTDFTLTISSLQAEDVAVYYCQNDYFYPLTFGAGTKLELKR
# Key:
# CLDN18.2 His = biological target: T1, CLDN18.2 His (human, UniProt P56856-2 1-261, limits assumed); experiment: BLI (Fortebio Octet), antibody on AHC sensor, CLDN18.2 His 6.25-100 nM, 1:1 fit
# T1 construct: also called antigen CLDN18.2 His; human CLDN18.2; not shown: His tag
# Description: The affinity constant of the antibody for human CLDN18.2 and CD47 ECD-His was determined using a Fortebio Octer molecular interaction instrument. The sample dilution buffer was PBS (0.02% Tween-20, 0.1% BSA, pH 7.4). The method for detecting the affinity of the antibody for human CLDN18.2 is as follows. The antibody at 20 nM was immobilized on an AHC sensor for 60 s. The sensor was equilibrated in a buffer for 60 s, and the binding of the immobilized antibody on the sensor to CLDN18.2 His at concentrations of 6.25-100 nM (two-fold dilution) was determined for 180 s. The protein was dissociated in the buffer for 360 s. The method for detecting the affinity of the antibody to human CD47 ECD-His is as follows. The antibody at 30 nM was immobilized on an AHC sensor for 120 s. The sensor was equilibrated in a buffer for 60 s, and the binding of the immobilized antibody on the sensor to the protein CD47 ECD-His at concentrations of 4.94-400 nM (three-fold dilution) was determined for 50 s. The protein was dissociated in the buffer for 120 s. The shaking speed of the sample plate was 1000 rpm, the temperature was 30° C., and the frequency was 5.0 Hz. The data were analyzed by 1:1 model fitting to obtain affinity constants. The data acquisition software was Fortebio Data Acquisition 12.0, and the data analysis software was Fortebio Data Analysis HT 12.0.
# [1] = biological target: T2, CLDN18.2 on the cell membrane surface (CHO-K1-CLDN18.2 cells, CHO-K1-CLDN18.2-CD47 cells, CHO-K1-hClaudin18.2 … (human, UniProt P56856-2 1-261)); experiment: flow cytometry (FACS) on CHO-K1-CLDN18.2-CD47 cells, PE anti-human IgG Fc
# T2 construct: whole, on cells; also called human Claudin18.2
# [2] = biological target: T3, human CLDN18.2 (ELISA coating antigen) (human, UniProt P56856-2 1-261, limits assumed); experiment: indirect ELISA, coated human CLDN18.2 2 µg/mL
# T3 construct: also called antigen human CLDN18.2
# Description: After blocking, the ELISA plate was washed 3 times with PBST. The ELISA plate containing the test antibodies was incubated at 37° C. for 30 min and then washed 3 times with PBST. […] The ELISA plate was put into a microplate reader immediately, and the OD value of each well in the ELISA plate was read at 450 nm. The data were analyzed and processed by SoftMax Pro 6.2.1.
# [3] = biological target: T2, CLDN18.2 on the cell membrane surface …; experiment: flow cytometry (FACS) on CHO-K1-CLDN18.2 cells, PE anti-human IgG Fc
binder,measurement,setting,value
B1,Kd,CLDN18.2 His,1.06 nM
same,koff,CLDN18.2 His,5.27e-05 s⁻¹
same,kon,CLDN18.2 His,49800 M⁻¹ s⁻¹
same,EC50,[1],1.22 nM
same,EC50,[2],0.011 nM
same,EC50,[3],4.44 nM
